Experimental data as given in US20100029704A1, “SALT OF NONSTEROIDAL ANTI-INFLAMMATORY DRUG AND ORGANIC AMINE COMPOUND AND USE THEREOF” (priority 2007, published 2010).
Each block holds one substance with its values, some of them ahead of it.

Assay: Skin permeability test using isolated rat abdominal skin (Franz-type diffusion cell)
Settings: accumulated up to 6 hours; 2.5 wt % as NSAID free acid in diethyl sebacate/propylene glycol; 32° C.

- diclofenac permeation amount: 14.3 μg/cm^2
Substance: diclofenac-donepezil salt

- flurbiprofen permeation amount: 28.3 μg/cm^2
Substance: flurbiprofen-donepezil salt

- Ketoprofen permeation amount: 60.3 μg/cm^2
Substance: ketoprofen-tolperisone salt
